Test: PK study of compound in monkeys
Details: in vivo; crab-eating monkey, IV 1 mg/kg and PO 5 mg/kg; read-out: Bioavailability F %
Protocol: Pharmacological Experiment 7: PK Study of Compound in Monkeys
The drug concentration was analyzed by LC-MS/MS method, and the pharmacokinetic parameters were calculated using Phoenix WinNolin software (Pharsight, USA).

Question: Which bioavailability does the source give for `CN(C)Cc1nc(Nc2ccc(-c3cnc4cc(F)ccn34)c3c2C(=O)NC3)ccc1C1CCOCC1` [Compound D1, reference compound] here?
Answer: Its bioavailability is 38.2%.
